target: T1, 20S proteasome chymotrypsin-like activity (Bos taurus, UniProt Q32KL2); assay: Kinetics of inhibition of 20S proteasome chymotrypsin-like activity (Suc-LLVY-AMC); type: biochemical, bovine; conditions: compound 12.5 μM; 25° C.
T1 construct: from tissue; host or cells: bovine brain
Method: Experiments involving the proteasome were performed as follows: 20S proteasome (˜5 ng/μl) in 10 mM Tris-HCl, pH 7.5, 1 mM EDTA was incubated at 25° C. in the presence of lactacystin or lactacystin analogs in DMSO or MeOH [not exceeding 5% (v/v)]. Aliquots for fluorescence assay were removed at various times following addition of compound and diluted in 10 mM Tris-HCl, pH 7.5, 1 mM EDTA containing fluorogenic peptide substrates (100 μM final). Suc-LLVY-AMC, Cbz-GGR-βNA and […] (AMC=7-amido-4-methylcoumarin; βNA=β-naphthylamide) were used to assay for the chymotrypsin-like, trypsin-like and peptidylglutamyl-peptide hydrolyzing activities, respectively.
Fluorescent emission at 460 nm with excitation at 380 nm was measured for AMC-containing substrates, and emission at 410 nm with excitation at 335 nm was measured for βNA-containing substrates. The fluorescence assays were conducted at 25° C., each experiment was performed at least three times, and values represent mean±standard deviation.
The reversibility of the inhibitory effects was assessed by measuring residual peptidase activity after removal of excess inhibitor by extensive serial dilution/ultrafiltration.

By UniProt entry, the sequences of proteins in these tests, tags left out. Where a name states a change or a piece, a line headed by the entry shows the natural chain unless it says otherwise.
UniProt Q32KL2: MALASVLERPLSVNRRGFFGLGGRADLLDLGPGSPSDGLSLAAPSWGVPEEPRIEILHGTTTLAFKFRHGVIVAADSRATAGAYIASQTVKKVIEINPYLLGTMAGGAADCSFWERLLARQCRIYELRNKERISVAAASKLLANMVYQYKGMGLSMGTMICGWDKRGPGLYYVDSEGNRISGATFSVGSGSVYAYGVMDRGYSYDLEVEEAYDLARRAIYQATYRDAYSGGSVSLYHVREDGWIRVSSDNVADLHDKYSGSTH

des(hydroxyisobutyl)-lactacystin was tested. Which “κassoc = κobs/[I], Chymotrypsin-like activity (Suc-LLVY-AMC)” value (shortened to “κassoc = κobs/[I]”) did it give?
Its value is “No inhibition”.

How did the “κassoc = κobs/[I]” value turn out when lactacystin amide was run?
The value was 306 ± 99 s^−1M^−1.

phenylacetyl lactacystin was tested. Which “κassoc = κobs/[I]” value did it give?
The value was 179 ± 19 s^−1M^−1.
